AlphaSeq binding of Ab-95 light chain variants to a spike HR2 peptide

Antigen: PDVDLGDISGINAS, a 14-residue peptide of the SARS-CoV-2 spike HR2 region.

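The parent was found by panning a naive human phage display library on the peptide. Library AAYL52 holds single substitutions and randomly drawn double and triple substitutions in the CDRs. In AlphaSeq, yeast of one mating type display the scFv and yeast of the other type display the target. After mating in shaken culture at 30 °C for 16 h, diploids were selected and their barcode pairs sequenced. Each replicate has its own calibration line, from reference interactions of the BCL2 family. Mating was done three times.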

The variants keep the heavy chain, the linker and the frameworks of Ab-95 (scFv order VH, a (GGGGS)3 linker, VL).
VH: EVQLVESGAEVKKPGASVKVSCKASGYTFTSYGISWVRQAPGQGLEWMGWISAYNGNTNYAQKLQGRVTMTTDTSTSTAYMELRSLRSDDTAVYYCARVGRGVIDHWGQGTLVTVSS
VL: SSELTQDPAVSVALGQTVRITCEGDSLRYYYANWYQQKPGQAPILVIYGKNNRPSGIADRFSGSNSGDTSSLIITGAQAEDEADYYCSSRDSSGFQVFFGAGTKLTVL

Changes read parent residue, position, new residue, counted from the first residue of the VL shown.
All variants listed here change S55 of the VL, counted from its first residue.
The read-out is the apparent dissociation constant on a log10 scale (nM): the lower, the stronger.
The mean shown is taken over the replicates in which the pair was detected.
"nd" means that the variant was in the library but no mating with the target was seen in that replicate; the authors take this as a sign of poor binding, and no number exists.
For reference, the parent read 2.31 as the reference entry and 2.25 as a member of this library.
Background: pairings of library AAYL52 with three empty control strains gave a value in 28% of cases (median 3.91, 5th percentile 2.90). Values in that range, when seen in few replicates, are hard to tell from nonspecific mating. For each scFv, signals with the empty controls are counted beside the result, with their mean in brackets.

changes,"log10 Kd, replicates","log10 Kd (nM), mean",control signals
E23K/R53N/S55L,nd 3.84 nd,3.84,2 of 9 (3.78)
K50H/P54M/S55F,3.12 3.41 2.19,2.91,0 of 9
N33E/N51Y/S55Q,4.53 nd 2.62,3.58,2 of 9 (4.66)
D25K/S26Y/S55W,3.75 nd nd,3.75,3 of 9 (3.98)
S55N/S93L/F98T,nd 4.27 3.32,3.79,2 of 9 (4.32)
L27T/A32S/S55G,2.55 3.90 nd,3.22,4 of 9 (3.95)
Y29K/K50A/S55K,2.60 2.30 2.32,2.41,2 of 9 (3.42)
E23R/Y29V/S55D,2.29 2.36 2.16,2.27,3 of 9 (3.79)
E23V/S55C/R90G,3.25 3.35 3.33,3.31,6 of 9 (4.33)
Y30A/K50T/S55F,1.19 1.14 0.58,0.97,1 of 9 (3.97)
D25R/S26R/S55P,4.34 nd nd,4.34,1 of 9 (3.56)
K50V/S55W/Q96D,3.89 4.26 4.13,4.09,3 of 9 (3.77)
E23T/K50P/S55Q,2.46 2.01 1.77,2.08,4 of 9 (3.43)
N33P/S55P,3.32 nd 2.55,2.94,3 of 9 (3.55)
D25K/Y31F/S55H,2.81 2.24 2.11,2.39,1 of 9 (2.45)
N51T/P54W/S55Y,4.91 4.24 nd,4.57,1 of 9 (5.55)
D25L/S55K,3.30 2.86 3.02,3.06,4 of 9 (3.35)
N52H/S55A/V97Y,3.49 3.32 3.32,3.37,4 of 9 (4.33)
Y31S/K50N/S55I,1.61 1.27 1.11,1.33,0 of 9
Y31L/S55V/S93C,3.46 3.16 4.35,3.65,6 of 9 (4.29)
Y29M/S55Y/F98M,3.52 3.36 nd,3.44,3 of 9 (4.37)
G24I/R28H/S55L,3.56 3.13 2.53,3.08,4 of 9 (3.73)
G49I/N51E/S55L,nd 3.91 4.33,4.12,5 of 9 (3.40)
D25C/N51V/S55W,nd nd nd,nd,4 of 9 (3.92)
S26A/S55E/S93I,2.22 1.94 2.01,2.06,0 of 9
Y29E/S55G/F95A,2.76 3.71 4.28,3.58,1 of 9 (4.09)
R28I/S55G/V97E,3.53 3.10 nd,3.31,1 of 9 (3.01)
K50N/S55L/G94A,3.30 nd nd,3.30,0 of 9
L27Y/S55T/Q96N,2.65 2.64 2.41,2.57,2 of 9 (4.63)
R53I/S55I/G94F,nd nd nd,nd,3 of 9 (4.34)
G24A/S55Q/D91A,2.58 3.33 4.19,3.37,1 of 9 (3.37)
S55G/S89T/S92C,4.97 3.45 3.78,4.06,2 of 9 (3.27)
S26A/L27E/S55E,nd 5.17 3.86,4.51,2 of 9 (4.74)
S26E/N33F/S55N,nd nd nd,nd,1 of 9 (2.74)
R53S/S55A/S88G,4.67 4.21 2.87,3.92,3 of 9 (3.95)
L27C/S55W/S92L,4.30 nd 3.54,3.92,2 of 9 (3.58)
S55P/F95T,2.30 2.72 3.13,2.72,6 of 9 (4.01)
G49R/S55F/F95T,nd nd nd,nd,3 of 9 (4.03)
G24D/S55A/G94Y,4.05 nd nd,4.05,1 of 9 (4.18)

Again, the first 4 entries without any signal:

changes,"log10 Kd, replicates","log10 Kd (nM), mean",control signals
D25C/N51V/S55W,nd nd nd,nd,4 of 9 (3.92)
R53I/S55I/G94F,nd nd nd,nd,3 of 9 (4.34)
S26E/N33F/S55N,nd nd nd,nd,1 of 9 (2.74)
G49R/S55F/F95T,nd nd nd,nd,3 of 9 (4.03)

The measurements come from Engelhart et al. 2022 (doi:10.1038/s41597-022-01779-4) through the FLAb antibody collection.